Paper PMC3923400

molecular target: Raf-Ras binding domain (agarose beads coated with it; Raf pull-down assay kit); test: pull-down

Percent of total K-Ras that is active (caught on Raf) (% of total K-Ras), 9:
K-Ras of Bxpc3 human pancreatic cancer cells (from UniProt P01116 1-189) (natural protein), K-Ras of Panc1 human pancreatic cancer cells (from UniProt P01116 1-189) (natural protein), K-Ras of Mpanc96 human pancreatic cancer cells (from UniProt P01116 1-189) (natural protein)
